{"sequences": {"note": "Chains of the proteins cited; added tags and fusions are not shown.", "UniProt P80457, whole entry": "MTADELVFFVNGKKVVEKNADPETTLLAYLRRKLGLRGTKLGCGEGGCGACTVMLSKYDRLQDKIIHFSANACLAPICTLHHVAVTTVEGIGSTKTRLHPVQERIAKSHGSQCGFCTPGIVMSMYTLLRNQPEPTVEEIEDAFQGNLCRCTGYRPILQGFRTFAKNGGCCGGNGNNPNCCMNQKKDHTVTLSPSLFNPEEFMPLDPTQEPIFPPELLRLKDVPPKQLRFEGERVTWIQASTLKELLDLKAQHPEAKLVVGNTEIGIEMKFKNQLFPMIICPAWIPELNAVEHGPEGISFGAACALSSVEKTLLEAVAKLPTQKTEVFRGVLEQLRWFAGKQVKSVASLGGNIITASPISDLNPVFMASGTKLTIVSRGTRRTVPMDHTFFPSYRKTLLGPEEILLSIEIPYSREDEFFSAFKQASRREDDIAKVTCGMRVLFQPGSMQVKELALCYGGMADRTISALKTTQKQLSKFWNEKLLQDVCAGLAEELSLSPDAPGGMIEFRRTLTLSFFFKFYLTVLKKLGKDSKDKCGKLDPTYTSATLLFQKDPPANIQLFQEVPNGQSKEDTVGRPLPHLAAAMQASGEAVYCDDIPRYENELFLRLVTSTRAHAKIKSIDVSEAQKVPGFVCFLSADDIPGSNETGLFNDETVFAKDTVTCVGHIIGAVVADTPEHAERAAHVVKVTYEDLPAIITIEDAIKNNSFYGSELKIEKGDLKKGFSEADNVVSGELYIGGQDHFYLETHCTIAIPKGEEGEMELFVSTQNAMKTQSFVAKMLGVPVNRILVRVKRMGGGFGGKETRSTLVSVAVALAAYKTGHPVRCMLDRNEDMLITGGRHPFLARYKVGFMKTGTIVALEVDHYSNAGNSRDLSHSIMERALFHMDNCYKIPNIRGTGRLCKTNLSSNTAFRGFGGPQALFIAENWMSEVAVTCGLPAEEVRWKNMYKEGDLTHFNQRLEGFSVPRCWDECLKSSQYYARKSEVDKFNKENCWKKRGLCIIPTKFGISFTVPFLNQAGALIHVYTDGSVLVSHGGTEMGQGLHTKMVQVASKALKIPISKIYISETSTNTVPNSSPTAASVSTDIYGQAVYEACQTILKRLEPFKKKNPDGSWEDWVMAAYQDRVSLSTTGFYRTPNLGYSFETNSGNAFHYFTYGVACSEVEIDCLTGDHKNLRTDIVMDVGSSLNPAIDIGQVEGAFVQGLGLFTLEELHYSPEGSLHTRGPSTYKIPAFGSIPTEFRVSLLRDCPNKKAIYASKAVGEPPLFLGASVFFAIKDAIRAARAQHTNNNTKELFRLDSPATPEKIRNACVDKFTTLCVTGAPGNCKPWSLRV"}, "source": "patent US20060270615A1", "about": "“Compositions suitable for the treatment of damage caused by ischemia/reper-fusion or oxidative stress” (N.V. NUTRICIA, priority 2000, published 2006)", "target": "T1, xanthine oxidase (grade I from buttermilk) (Bos taurus, UniProt P80457)", "T1 construct": "XOD (xanthine oxidase) (grade I from buttermilk); from tissue; host or cells: buttermilk", "experiment": "Xanthine oxidase inhibition (xanthine oxidase assay), uric acid production", "format": "biochemical", "conditions": "xanthine substrate, pH 7.8, absorbance at 295 nm", "procedure": "Xanthine Oxidase Inhibition (Xanthine Oxidase Assay)\nThe activity of xanthine oxidase is determined by means of the uric acid production.\nThis solution is maintained on ice during the entire experiment to prevent changes in the activity of the enzyme.\n724 μl phophate buffer pH=7.8\n10 μl DMSO or the substance to be tested dissolved in DMSO\nThe reaction is started by addition of 66 μl of the enzyme solution to the above described assay mixture. […] If the reaction is linear, the result is expressed as Δ absorbance/min. […] The maximum activity is the activity of the enzyme, when no substance is dissolved in DMSO."}
{"substance": "Catechin", "values": [{"measurement": "IC-50 xanthine oxidase inhibition", "result": "not detectable"}]}
